#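 Interpolation was linear, between the two tested concentrations surrounding the appropriate level; five concentrations were tested over 48 hours in 96-well plates. GI50 marks 50% less growth. TGI marks complete inhibition of growth.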
# How the values were obtained:
# Assay in all cases: growth of human tumour cells (NCI), 48 h
# NCI-H226 lung = test system: NCI-H226 lung
# SNB-19 CNS = test system: SNB-19 CNS
# SF-539 CNS = test system: SF-539 CNS
# RXF 393 renal = test system: RXF 393 renal
# K-562 leukemia = test system: K-562 leukemia
# 786-0 renal = test system: 786-0 renal
# MOLT-4 leukemia = test system: MOLT-4 leukemia
# SK-MEL-2 melanoma = test system: SK-MEL-2 melanoma
# SK-OV-3 ovarian = test system: SK-OV-3 ovarian
# HT29 colon = test system: HT29 colon
# TK-10 renal = test system: TK-10 renal
# EKVX NSCLC = test system: EKVX NSCLC
# HCC-2998 colon = test system: HCC-2998 colon
# CAKI-1 renal = test system: CAKI-1 renal
# UACC-257 melanoma = test system: UACC-257 melanoma
# RPMI-8226 leukemia = test system: RPMI-8226 leukemia
# OVCAR-3 ovarian = test system: OVCAR-3 ovarian
# DU-145 prostate = test system: DU-145 prostate
# HCT-15 colon = test system: HCT-15 colon
# MALME-3M melanoma = test system: MALME-3M melanoma
# T-47D breast = test system: T-47D breast
# NCI/ADR-RES ovarian = test system: NCI/ADR-RES ovarian
# CCRF-CEM leukemia = test system: CCRF-CEM leukemia
# SK-MEL-5 melanoma = test system: SK-MEL-5 melanoma
# U251 CNS = test system: U251 CNS
# LOX IMVI melanoma = test system: LOX IMVI melanoma
# MDA-MB-435 = test system: MDA-MB-435
# SW-620 colon = test system: SW-620 colon
# HOP-62 NSCLC = test system: HOP-62 NSCLC
# SK-MEL-28 melanoma = test system: SK-MEL-28 melanoma
# HS 578T breast = test system: HS 578T breast
# SF-295 CNS = test system: SF-295 CNS
# UACC-62 melanoma = test system: UACC-62 melanoma
# SNB-75 CNS = test system: SNB-75 CNS
# A549 NSCLC = test system: A549 NSCLC
# NCI-H322M lung = test system: NCI-H322M lung
# PC-3 prostate = test system: PC-3 prostate
# BT-549 breast = test system: BT-549 breast
# A498 renal = test system: A498 renal
# OVCAR-4 ovarian = test system: OVCAR-4 ovarian
# MCF7 breast = test system: MCF7 breast
# M14 melanoma = test system: M14 melanoma
# IGROV1 ovarian = test system: IGROV1 ovarian
# COLO 205 colon = test system: COLO 205 colon
# HOP-92 NSCLC = test system: HOP-92 NSCLC
# HL-60(TB) leukemia = test system: HL-60(TB) leukemia
# NCI-H23 lung = test system: NCI-H23 lung
# SN12C renal = test system: SN12C renal
# NCI-H522 lung = test system: NCI-H522 lung
# HCT-116 colon = test system: HCT-116 colon
# UO-31 renal = test system: UO-31 renal
# OVCAR-8 ovarian = test system: OVCAR-8 ovarian
# KM12 colon = test system: KM12 colon
# SF-268 CNS = test system: SF-268 CNS
# OVCAR-5 ovarian = test system: OVCAR-5 ovarian
# NCI-H460 lung = test system: NCI-H460 lung
# MDA-MB-231 breast = test system: MDA-MB-231 breast
# SR leukemia = test system: SR leukemia
# ACHN renal = test system: ACHN renal
structure (smiles),measurement,setting,value
O=C(Cl)c1c([N+](=O)[O-])cc([N+](=O)[O-])cc1[N+](=O)[O-],GI50,NCI-H226 lung,15.2 µM
same,TGI,NCI-H226 lung,28.9 µM
same,GI50,SNB-19 CNS,4.8 µM
same,TGI,SNB-19 CNS,17.7 µM
same,GI50,SF-539 CNS,6.81 µM
same,TGI,SF-539 CNS,20 µM
same,GI50,RXF 393 renal,4.37 µM
same,TGI,RXF 393 renal,14.2 µM
same,GI50,K-562 leukemia,3.22 µM
same,TGI,K-562 leukemia,> 100 µM
same,GI50,786-0 renal,14.1 µM
same,TGI,786-0 renal,27.1 µM
same,GI50,MOLT-4 leukemia,4.84 µM
same,TGI,MOLT-4 leukemia,37.4 µM
same,GI50,SK-MEL-2 melanoma,11.7 µM
same,TGI,SK-MEL-2 melanoma,26.7 µM
same,GI50,SK-OV-3 ovarian,15.9 µM
same,TGI,SK-OV-3 ovarian,29.3 µM
same,GI50,HT29 colon,2.4 µM
same,TGI,HT29 colon,5.33 µM
same,GI50,TK-10 renal,16.1 µM
same,TGI,TK-10 renal,29.6 µM
same,GI50,EKVX NSCLC,6.73 µM
same,TGI,EKVX NSCLC,19.3 µM
same,GI50,HCC-2998 colon,1.88 µM
same,TGI,HCC-2998 colon,3.45 µM
same,GI50,CAKI-1 renal,1.8 µM
same,TGI,CAKI-1 renal,3.34 µM
same,GI50,UACC-257 melanoma,1.67 µM
same,TGI,UACC-257 melanoma,3.17 µM
same,GI50,RPMI-8226 leukemia,2.58 µM
same,TGI,RPMI-8226 leukemia,7.17 µM
same,GI50,OVCAR-3 ovarian,1.79 µM
same,TGI,OVCAR-3 ovarian,3.22 µM
same,GI50,DU-145 prostate,1.67 µM
same,TGI,DU-145 prostate,3.05 µM
same,GI50,HCT-15 colon,1.68 µM
same,TGI,HCT-15 colon,3.56 µM
same,GI50,MALME-3M melanoma,5.64 µM
same,TGI,MALME-3M melanoma,18.7 µM
same,GI50,T-47D breast,2.11 µM
same,TGI,T-47D breast,4.55 µM
same,GI50,NCI/ADR-RES ovarian,13.7 µM
same,TGI,NCI/ADR-RES ovarian,52.6 µM
same,GI50,CCRF-CEM leukemia,3.33 µM
same,TGI,CCRF-CEM leukemia,17 µM
same,GI50,SK-MEL-5 melanoma,18.1 µM
same,TGI,SK-MEL-5 melanoma,32.6 µM
same,GI50,U251 CNS,9.56 µM
same,TGI,U251 CNS,22 µM
same,GI50,LOX IMVI melanoma,2.95 µM
same,TGI,LOX IMVI melanoma,11.4 µM
same,GI50,MDA-MB-435,6.38 µM
same,TGI,MDA-MB-435,19.2 µM
same,GI50,SW-620 colon,1.93 µM
same,TGI,SW-620 colon,4.01 µM
same,GI50,HOP-62 NSCLC,2.84 µM
same,TGI,HOP-62 NSCLC,7.67 µM
same,GI50,SK-MEL-28 melanoma,2.8 µM
same,TGI,SK-MEL-28 melanoma,7.69 µM
same,GI50,HS 578T breast,2.03 µM
same,TGI,HS 578T breast,8.19 µM
same,GI50,SF-295 CNS,16.1 µM
same,TGI,SF-295 CNS,29.5 µM
same,GI50,UACC-62 melanoma,4.27 µM
same,TGI,UACC-62 melanoma,16.2 µM
same,GI50,SNB-75 CNS,2.24 µM
same,TGI,SNB-75 CNS,10.3 µM
same,GI50,A549 NSCLC,16.8 µM
same,TGI,A549 NSCLC,32.2 µM
same,GI50,NCI-H322M lung,15.4 µM
same,TGI,NCI-H322M lung,29.3 µM
same,GI50,PC-3 prostate,6.16 µM
same,TGI,PC-3 prostate,20.6 µM
same,GI50,BT-549 breast,13.6 µM
same,TGI,BT-549 breast,26.5 µM
same,GI50,A498 renal,16.1 µM
same,TGI,A498 renal,29.6 µM
same,GI50,OVCAR-4 ovarian,1.89 µM
same,TGI,OVCAR-4 ovarian,3.87 µM
same,GI50,MCF7 breast,1.67 µM
same,TGI,MCF7 breast,3.82 µM
same,GI50,M14 melanoma,5.5 µM
same,TGI,M14 melanoma,18.3 µM
same,GI50,IGROV1 ovarian,10.2 µM
same,TGI,IGROV1 ovarian,23.4 µM
same,GI50,COLO 205 colon,1.89 µM
same,TGI,COLO 205 colon,3.51 µM
same,GI50,HOP-92 NSCLC,7.68 µM
same,TGI,HOP-92 NSCLC,20 µM
same,GI50,HL-60(TB) leukemia,2.34 µM
same,TGI,HL-60(TB) leukemia,6.01 µM
same,GI50,NCI-H23 lung,12 µM
same,TGI,NCI-H23 lung,31.7 µM
same,GI50,SN12C renal,10.2 µM
same,TGI,SN12C renal,23.7 µM
same,GI50,NCI-H522 lung,1.84 µM
same,TGI,NCI-H522 lung,3.64 µM
same,GI50,HCT-116 colon,3.36 µM
same,TGI,HCT-116 colon,11.3 µM
same,GI50,UO-31 renal,1.79 µM
same,TGI,UO-31 renal,3.36 µM
same,GI50,OVCAR-8 ovarian,10.5 µM
same,TGI,OVCAR-8 ovarian,32 µM
same,GI50,KM12 colon,5 µM
same,TGI,KM12 colon,19.7 µM
same,GI50,SF-268 CNS,4.68 µM
same,TGI,SF-268 CNS,17.1 µM
same,GI50,OVCAR-5 ovarian,17.1 µM
same,TGI,OVCAR-5 ovarian,40.9 µM
same,GI50,NCI-H460 lung,11.5 µM
same,TGI,NCI-H460 lung,28.5 µM
same,GI50,MDA-MB-231 breast,11.2 µM
same,TGI,MDA-MB-231 breast,25.3 µM
same,GI50,SR leukemia,2.14 µM
same,TGI,SR leukemia,> 100 µM
same,GI50,ACHN renal,1.88 µM
same,TGI,ACHN renal,3.43 µM
